ChEMBL document CHEMBL1128729, “Alpha- and beta-adrenoceptors: from the gene to the clinic. 2. Structure-activity relationships and therapeutic applications” (J Med Chem, 1995)

Amino acid sequences for entries named in this document (tags omitted).
UniProt P22002, whole entry: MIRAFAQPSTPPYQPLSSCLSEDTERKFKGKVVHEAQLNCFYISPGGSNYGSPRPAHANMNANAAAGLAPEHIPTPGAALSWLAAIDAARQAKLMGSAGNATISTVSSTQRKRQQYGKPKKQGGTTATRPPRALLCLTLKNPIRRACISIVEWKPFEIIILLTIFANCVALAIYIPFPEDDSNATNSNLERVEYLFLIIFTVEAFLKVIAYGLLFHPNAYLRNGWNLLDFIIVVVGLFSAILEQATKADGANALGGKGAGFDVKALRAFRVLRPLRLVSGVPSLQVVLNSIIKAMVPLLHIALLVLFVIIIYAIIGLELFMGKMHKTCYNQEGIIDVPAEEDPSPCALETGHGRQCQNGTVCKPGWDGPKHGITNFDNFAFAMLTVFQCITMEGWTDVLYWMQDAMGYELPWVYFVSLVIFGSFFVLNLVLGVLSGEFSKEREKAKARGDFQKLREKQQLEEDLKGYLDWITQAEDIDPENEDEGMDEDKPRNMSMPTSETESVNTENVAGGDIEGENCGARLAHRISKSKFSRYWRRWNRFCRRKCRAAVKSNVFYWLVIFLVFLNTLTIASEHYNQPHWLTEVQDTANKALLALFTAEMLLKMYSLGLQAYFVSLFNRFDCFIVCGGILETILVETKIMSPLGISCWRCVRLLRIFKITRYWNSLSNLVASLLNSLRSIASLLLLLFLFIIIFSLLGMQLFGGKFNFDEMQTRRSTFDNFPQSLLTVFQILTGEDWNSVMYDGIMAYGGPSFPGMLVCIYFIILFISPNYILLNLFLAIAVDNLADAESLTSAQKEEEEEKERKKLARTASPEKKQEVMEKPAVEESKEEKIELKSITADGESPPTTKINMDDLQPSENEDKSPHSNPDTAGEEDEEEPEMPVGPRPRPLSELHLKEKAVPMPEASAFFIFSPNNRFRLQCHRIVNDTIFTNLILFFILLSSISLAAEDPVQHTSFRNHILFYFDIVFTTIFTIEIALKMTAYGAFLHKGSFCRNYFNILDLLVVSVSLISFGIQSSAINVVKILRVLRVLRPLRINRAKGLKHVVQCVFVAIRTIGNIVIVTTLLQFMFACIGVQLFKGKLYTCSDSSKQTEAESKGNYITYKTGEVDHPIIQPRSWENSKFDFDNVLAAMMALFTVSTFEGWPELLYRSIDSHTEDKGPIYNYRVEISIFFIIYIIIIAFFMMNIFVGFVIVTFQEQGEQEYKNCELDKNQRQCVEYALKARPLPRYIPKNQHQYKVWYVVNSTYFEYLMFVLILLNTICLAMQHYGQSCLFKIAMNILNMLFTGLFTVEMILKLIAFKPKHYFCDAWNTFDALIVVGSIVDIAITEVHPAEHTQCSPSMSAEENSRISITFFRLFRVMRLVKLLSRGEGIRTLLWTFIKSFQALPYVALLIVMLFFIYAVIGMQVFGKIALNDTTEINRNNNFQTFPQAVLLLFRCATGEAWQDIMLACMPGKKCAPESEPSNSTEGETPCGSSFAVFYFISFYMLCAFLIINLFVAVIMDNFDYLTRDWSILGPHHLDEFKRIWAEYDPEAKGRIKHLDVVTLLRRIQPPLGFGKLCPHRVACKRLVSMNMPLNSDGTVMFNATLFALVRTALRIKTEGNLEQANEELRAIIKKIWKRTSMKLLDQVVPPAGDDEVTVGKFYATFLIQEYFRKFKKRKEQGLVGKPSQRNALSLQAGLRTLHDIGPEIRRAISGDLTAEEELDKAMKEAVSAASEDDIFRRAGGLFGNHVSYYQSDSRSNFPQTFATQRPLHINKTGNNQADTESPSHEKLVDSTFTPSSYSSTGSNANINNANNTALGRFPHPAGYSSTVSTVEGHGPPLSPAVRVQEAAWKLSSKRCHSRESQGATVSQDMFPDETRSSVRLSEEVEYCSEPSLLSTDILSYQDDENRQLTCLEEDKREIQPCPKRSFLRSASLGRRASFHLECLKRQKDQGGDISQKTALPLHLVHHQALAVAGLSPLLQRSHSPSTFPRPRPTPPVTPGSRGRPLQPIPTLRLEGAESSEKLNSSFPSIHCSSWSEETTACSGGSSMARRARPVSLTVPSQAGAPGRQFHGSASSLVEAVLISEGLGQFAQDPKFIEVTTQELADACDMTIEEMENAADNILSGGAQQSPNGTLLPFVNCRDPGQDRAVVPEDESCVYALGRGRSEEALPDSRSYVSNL

Target: Voltage-dependent L-type calcium channel subunit alpha-1C (Rattus norvegicus, UniProt P22002)
Test: biochemical

Structure (SMILES): COC(=O)C1=C(C)NC(C)=C(C(=O)OCCCN2CCC(c3ccccc3)(c3ccccc3)CC2)[C@H]1c1cccc([N+](=O)[O-])c1 [NIGULDIPINE]
- Ki: 9 nM
